Data reported in PubChem BioAssay AID492956 (The Scripps Research Institute Molecular Screening Center, 2010).
Only a part is listed here, and it is no random draw. The source made the active and inactive calls.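 Rule for the calls: active = inhibition above the mean over all tested compounds plus 3 SD (cut at about 30% in these data); inactive = the rest.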

The molecules below were run against Platelet-activating factor acetylhydrolase 2, cytoplasmic (Homo sapiens) (UniProt Q99487) (assay: inhibition of cytoplasmic PAF acetylhydrolase 2 – biochemical, fluorescence polarization, human, primary screen (AID 492956;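 note: inhibitors block probe labeling of enzyme so polarization drops; 0% = enzyme with DMSO and 100% = wells lacking PAFAH2 protein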)). Details: recombinant PAFAH2, FP-rhodamine activity probe, at 3.39 µM, stronger effect = higher value.

Row | Structure (SMILES) | inhibition
1 | CCOC(=O)c1ccc(NP(C)(=O)Oc2ccc(F)cc2)cc1 (stereo not given) | inactive: -4.78%
2 | COc1ccc(OP(C)(=O)Nc2ccc(SC(F)(F)F)cc2)cc1 (stereo not given) | inactive: 14.3%
3 | CP(=O)(Nc1ccccc1)Oc1ccc(F)cc1 (stereo not given) | inactive: 3.75%
4 | O=[N+]([O-])c1cc([N+](=O)[O-])c(OC2CCCCC2O)c([N+](=O)[O-])c1 (stereo not given) | inactive: 7.31%
5 | CCCCCOc1ccc(NP(C)(=O)Oc2ccc(Cl)cc2Cl)cc1 (stereo not given) | inactive: -0.43%
6 | Cc1c([N+](=O)[O-])cc([N+](=O)[O-])c(Br)c1[N+](=O)[O-] | inactive: -9.03%
7 | CCN(CC)CCCOC(=O)C(O)(c1ccccc1)C1CCCCC1 (stereo not given) | inactive: -2.35%
8 | CN(C)CCOC(=O)C(O)(c1ccccc1)C1CCCCC1 (stereo not given) | inactive: 0.87%
9 | COc1ccc(NP(C)(=O)Oc2ccccc2OC)cc1 (stereo not given) | inactive: 8.93%
10 | COc1ccc(OP(C)(=O)Nc2cccc(Br)c2)cc1 (stereo not given) | inactive: 2.39%
11 | Cc1c(C(c2ccc3c(c2)OCO3)c2c(C)n(C)n(-c3ccccc3)c2=O)c(=O)n(-c2ccccc2)n1C.O=[N+]([O-])c1cc([N+](=O)[O-])c(O)c([N+](=O)[O-])c1 | inactive: 13.8%
12 | O=[N+]([O-])c1ccc(OP2(=O)COCCO2)cc1 (stereo not given) | inactive: 6.93%
13 | Cc1cc(-c2cccc3ccccc23)c(C)cn1.O=[N+]([O-])c1cc([N+](=O)[O-])c(O)c([N+](=O)[O-])c1 | inactive: -1.57%
14 | O=[N+]([O-])c1cc([N+](=O)[O-])c(NCC2CCS(=O)(=O)C2)c([N+](=O)[O-])c1 (stereo not given) | inactive: -6.37%
15 | CCOP(C)(=S)SCC(=O)NC(C)(CC)C(=O)O (stereo not given) | inactive: -20.4%
16 | CP(=O)(Nc1ccc(SC(F)(F)F)cc1)Oc1ccc(F)cc1 (stereo not given) | inactive: -2.99%
17 | Cc1ccccc1NP(C)(=O)Nc1ccccc1C | inactive: -5.65%
18 | CP(=O)(Nc1ccc2c(c1)OCCO2)Oc1ccccc1 (stereo not given) | inactive: -1.3%
19 | O=C(OCCCN1CCCC1)C(O)(c1ccccc1)C1CCCCC1 (stereo not given) | inactive: -5.42%
20 | COc1ccccc1OP(C)(=O)Nc1c(C)n(C)n(-c2ccccc2)c1=O (stereo not given) | inactive: -10.9%
21 | CCc1ccc(OP(C)(=O)Nc2cccnc2)cc1 (stereo not given) | inactive: -0.1%
22 | CP(=O)(Oc1ccccc1)N1CCOC1=O (stereo not given) | inactive: 1.1%
23 | COc1ccc(OP(C)(=O)Nc2ccc(Br)cc2)cc1 (stereo not given) | inactive: 6.35%

Row | Structure (SMILES) | inhibition
24 | CCN(CC)CC(O)COC(=O)C(O)(c1ccccc1)C1CCCCC1 (stereo not given) | inactive: 5.71%
25 | CN(C)C(=O)c1c([N+](=O)[O-])cc([N+](=O)[O-])cc1[N+](=O)[O-] | inactive: -2.24%
26 | CC(C)(C)c1ccc(OP(C)(=O)O)cc1 | inactive: -6.1%
27 | COc1ccccc1OP(C)(=O)Nc1ccccc1Br (stereo not given) | inactive: -3.71%
28 | CP(=O)(Nc1ccc(Cl)cc1)Oc1ccc(F)cc1 (stereo not given) | inactive: 2.66%
29 | CCOC(=O)c1ccc(NP(C)(=O)Oc2ccc(Cl)cc2)cc1 (stereo not given) | inactive: 4.65%
30 | CP(=O)(OC12CC3CC(CC(C3)C1)C2)OC12CC3CC(CC(C3)C1)C2 | inactive: 2.1%
31 | COc1ccccc1OP(C)(=O)Nc1ccc(C)c(C)c1 (stereo not given) | inactive: 5.76%
32 | COc1ccc(OP(C)(=O)Nc2ccccc2Br)cc1 (stereo not given) | inactive: 3.22%
33 | Cc1cc(C)cc(OP(C)(=O)Nc2cccc(C(F)(F)F)c2)c1 (stereo not given) | inactive: 0.24%
34 | O=C1C(O)=C([N+](=O)[O-])C(=O)C(O)=C1[N+](=O)[O-] | inactive: 4.74%
35 | CP(=O)(OCCOc1ccccc1)OCCOc1ccccc1 | inactive: -2.64%
36 | CP(=O)(Nc1ccc(Cl)cc1Cl)Oc1ccccc1 (stereo not given) | inactive: 0.78%
37 | CCCCCCCCCCCCCCCC1C[N+](C)(C)CCOP(C)(=O)O1 (stereo not given) | inactive: 2.82%
38 | COc1ccc(OP(C)(=O)Nc2ccccn2)cc1 (stereo not given) | inactive: -1.88%
39 | CN(C)CCOC(=O)C(O)(c1ccccc1)C1CCCC1 (stereo not given) | inactive: 0.98%
40 | COc1ccccc1OP(C)(=O)Nc1ccc(Br)cc1 (stereo not given) | inactive: -7.81%
41 | COc1ccccc1OP(C)(=O)Nc1ccc(C)cc1C (stereo not given) | inactive: -3.05%
42 | CP(=O)(Nc1ccccn1)Oc1ccccc1 (stereo not given) | inactive: 2.85%
43 | CCc1ccc(OP(C)(=O)O)cc1 | inactive: -1.37%
44 | O=[N+]([O-])c1cc([N+](=O)[O-])c(Nc2ccccn2)c([N+](=O)[O-])c1 | inactive: 9.63%
45 | Cc1c(NP(C)(=O)Oc2ccc(C(C)C)cc2)c(=O)n(-c2ccccc2)n1C (stereo not given) | inactive: 4.36%
